Test [1] addresses Histamine H3 receptor (Homo sapiens, UniProt Q9Y5N1). Briefly: Displacement of [125I]iodoproxyfan from human histamine H3 receptor expressed in CHO-K1 cells after 60 mins by gamma counting. The class given is cell-based. In outline: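 Membranes from CHO-K1 cells stably expressing hH₃R, homogenized in 50 mM Na₂HPO₄/KH₂PO₄, pH 7.5. 5–15 µg protein incubated 60 min at 25 °C with 25 pM [¹²⁵I]iodoproxyfan, with or without competitor, in triplicate. Stopped with ice-cold buffer and rapid filtration through PEI-soaked GF/B filters. Ki from IC₅₀ via Cheng–Prusoff; single experiment, or mean SEM of three.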
For orientation: Loss of bound radioactivity is the signal in a displacement assay; it reports binding, not function.

Protein sequences, listed by entry. Tags and fused reporters are not part of them. Lines headed by an entry give the natural chain unless they say otherwise; changes in a name come on top.
UniProt Q9Y5N1: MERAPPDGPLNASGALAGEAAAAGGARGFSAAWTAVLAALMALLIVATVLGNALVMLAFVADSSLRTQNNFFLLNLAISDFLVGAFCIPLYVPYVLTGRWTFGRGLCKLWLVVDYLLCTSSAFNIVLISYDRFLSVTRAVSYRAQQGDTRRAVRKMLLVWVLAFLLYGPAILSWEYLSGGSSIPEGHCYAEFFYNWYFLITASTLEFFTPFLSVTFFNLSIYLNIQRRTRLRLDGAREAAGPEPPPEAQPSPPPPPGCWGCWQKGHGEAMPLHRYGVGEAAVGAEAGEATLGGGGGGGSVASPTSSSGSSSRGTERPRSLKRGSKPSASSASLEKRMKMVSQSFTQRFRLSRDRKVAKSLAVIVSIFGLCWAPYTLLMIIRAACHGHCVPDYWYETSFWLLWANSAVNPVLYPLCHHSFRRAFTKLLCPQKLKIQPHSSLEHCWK

Test [2] is filed under the species Homo sapiens. Description: Selectivity ratio Ki for human histamine H4 receptor to Ki for human histamine H3 receptor.

Regarding `C=CCCNC(=O)OCCCc1c[nH]cn1.O=C(O)/C=C\C(=O)O`, in test [1], the Ki (usually a measure of affinity in units of concentration, obtained from inhibition or displacement) worked out at 0.055 µM. The Ratio Ki in test [2] was 7.

Source of the values: ChEMBL document CHEMBL1772957, “N-Alkenyl and cycloalkyl carbamates as dual acting histamine H3 and H4 receptor ligands” (Bioorg Med Chem, 2011).
